Data taken from PubChem BioAssay AID1008 (NMMLSC, 2008).
Only a part is listed here, and it is no random draw. Some results for these compounds are left out of this collection, so the calls shown say nothing about other tests. The source made the active and inactive calls. Rule as the data show it: active = inhibition above about 40%.

Sequences of proteins named here, by UniProt entry; tags and fusion partners are left off.
UniProt Q16548, whole entry: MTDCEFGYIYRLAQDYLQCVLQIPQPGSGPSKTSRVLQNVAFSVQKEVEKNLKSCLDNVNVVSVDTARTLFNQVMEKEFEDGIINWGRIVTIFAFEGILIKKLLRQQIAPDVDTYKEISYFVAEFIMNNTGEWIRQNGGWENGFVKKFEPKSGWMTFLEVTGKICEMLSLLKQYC

molecular target: Bcl-2-related protein A1 (Homo sapiens) (UniProt Q16548); experiment: Bfl-1/Bim complex disruptors – biochemical, multiplexed, bead-based flow cytometry, primary screen (AID 1008); conditions: Bim-Bfl-1 binding inhibition, at 10 µM, active compounds read high;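 also: 0% = wells without compound plus tracer and 100% = blocker peptide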

SMILES	inhibition
Cc1ccccc1C(=O)NCC1(N2CCCCC2)CCCCC1	inactive: 3%
CN(C)C1CCCC1OC(=O)C(O)(c1ccccc1)c1ccccc1 (centres undefined)	inactive: -15%
C=CCN1CCN(CCOC(=O)C(O)(c2ccccc2)c2ccccc2)CC1	inactive: -2%
CCN1CCCC(OC(=O)C2(O)c3ccccc3C=Cc3ccccc32)C1 (centres undefined)	inactive: -1%
O=C(NCC1(N2CCCCC2)CCCCC1)c1cc([N+](=O)[O-])ccc1Cl	inactive: 7%
CC(C)N1C(=O)CC2(CCN(CCOC(=O)C(O)(c3ccccc3)c3ccccc3)CC2)C1=O	inactive: -1%
O=C(OC1CN2CCC1CC2)C(CO)(c1ccccc1)c1ccccc1 (centres undefined)	inactive: -15%
CN(C)c1cccc(C(=O)NCC2(N(C)C)CCCCC2)c1	inactive: -19%
COc1cccc(C(=O)NCC2(N3CCCCC3)CCCCC2)c1	inactive: -6%
